Structures are written as SMILES. Entries after “also recorded” stand apart in the source; their conditions may differ.

Data set [1] has as its system CYP1A2. Nature of the data set: CYP1A2 enzyme induction assay in cryopreserved HepaRG cells (phenacetin probe, LC/MS). The format is in vitro ADME, human.
Data set [2] concerns CYP2B6. Nature of the data set: CYP2B6 enzyme induction assay in cryopreserved HepaRG cells (bupropion probe, LC/MS). The format is in vitro ADME, human. The following applies: for Prediction in vivo inducer: Cmax/F2 >0.5 criterion.
The subject of data set [3] is CYP3A4. Nature of the data set: CYP3A4 enzyme induction assay in cryopreserved HepaRG cells (midazolam probe, LC/MS). The class given is in vitro ADME, human.
The test system of data set [4] is CYP1A2. As to the kind of experiment: CYP1A2 enzyme induction assay in cryopreserved primary human hepatocytes (PHH). The format is in vitro ADME. The following applies: for Prediction in vivo inducer: Cmax/F2 >0.5 criterion.
Data set [5] relates to CYP2B6. As to the kind of experiment: CYP2B6 enzyme induction assay in cryopreserved primary human hepatocytes (PHH). The format is in vitro ADME.
The subject of data set [6] is CYP3A4. Nature of the data set: CYP3A4 enzyme induction assay in cryopreserved primary human hepatocytes (PHH).
Setting [7] is: positive in one batch in each of the three laboratories.

Turning to `O=C1C(CC[S+]([O-])c2ccccc2)C(=O)N(c2ccccc2)N1c1ccccc1` (centres unmarked) [Sulfinpyrazone], the “Prediction in vivo inducer” value with CYP1A2 [1] (Cmax/F2 >0.5 criterion) is “Yes”; with CYP2B6 [2], “Yes”; in the data set on CYP2B6 [2] (listed as sulfinpyrazone), “predicted as positive inducers”; in the data set on CYP3A4 [3], “Yes”; in the data set with CYP1A2 [4], “No”; in the data set on CYP1A2 [4] (listed as sulfinpyrazone) it was “non-inducer; also recorded: missed the in vivo prediction”. In addition, the “Prediction in vivo inducer” value in the data set on CYP2B6 [5] and with CYP3A4 [6] was “Yes” throughout. Besides, the Induction in vitro entry is on record as “Yes” in the data set on CYP1A2 [1] (setting [7]); “Yes” in the data set on CYP2B6 [2] (setting [7]); “Yes” with CYP3A4 [3]; “No” in the data set on CYP1A2 [4] (positive in one donor in each of the three laboratories); “Yes” in the data set with CYP2B6 [5]; “Yes” in the data set on CYP3A4 [6].
